Laboratory results as given in paper PMC7852560 (Neuropsychopharmacology, 2020).

Tested on: Male Sprague Dawley rats
Assay: Conditioned avoidance response (CAR)
Type: in vivo
Conditions: ABM300 10 mg/kg, olanzapine 1 mg/kg i.p. daily
Protocol: Male Sprague Dawley rats (PD>63) were trained on a CAR protocol and responding following drug exposure was determined. […] Animals were trained to learn a house light (CS) as predictive of an avoidable 0.6mA scrambled foot shock (US). Each session consisted of 50 trials and animals avoided >70% of trials on the final acquisition session were tested for CAR during vehicle baseline, drug exposure, and re-emergence. In addition to CAR testing, both temperature and catalepsy were recorded in these animals (measure of potential CB1R agonism). Temperature: recorded on first day of drug exposure, prior to injection and 60-90-min. following drug exposure.

With `CCc1c(-c2nnc(Nc3ccccc3)o2)[nH]c2ccc(Cl)cc12` [ABM300, 5-(5-chloro-3-ethyl-1H-indol-2-yl)-N-phenyl-1,3,4-oxadiazol-2-amine] the “escape failures in CAR” value was “neither ABM300 nor olanzapine affected escape failures” and the “escape responding during CAR” value was “but not ABM300, enhanced escape responding”.
